Test results published in US6229055A, “Synthesis of fluorinated xanthene derivatives” (Molecular Probes, Inc., priority 2000, dated 2001).

Legend:
[1] = Spectral properties of selected fluorinated fluoresceins and rhodols; format: physicochemical
[2] = Photodecomposition on illumination in fluorometer; format: physicochemical; settings: % of decreased fluorescence intensity after 33 minutes of illumination in fluorometer at wavelength of maximum excitation
Method: *% of decreased fluorescence intensity after 33 minutes of illumination in
fluorometer at wavelength of maximum excitation

[3] = pH titration of fluorophores (pKa); settings: Table 1

## 5-(and-6)-carboxyfluorescein [reference compound]
[1]; absorption maximum
  Abs.: 492 nm
[1]; emission maximum
  Em.: 516 nm
[1]; extinction coefficient, value is ε × 10^-3
  ε × 10^-3: 82.0 cm^-1 M^-1
[1]; fluorescence quantum yield
  Quantum Yield: 0.92
[2]
  photodecomposition: 17%
[3]
  pKa: 6.4
